The assay relates to locomotor activity in mice. Kind of assay: Locomotor stimulant activity in mice. In kind it is in vivo.

In the case of `NC(=O)C[S+]([O-])C(c1ccc(Cl)cc1)c1ccc(Cl)cc1` (racemic) [5c], the “Locomotor effect in first and second hour after injection” value (immediately after injection and second hour) was “no effects”. In addition, the “Locomotor effect in third and fourth hours after injection” value (third and fourth hours, highest dose studied) is listed as “modest stimulant effect”.

The values above are taken from article PMC3041981 (ACS medicinal chemistry letters, 2010).
